These results are taken from ChEMBL document CHEMBL1123961 (J Med Chem, 1988).

Protein sequences, listed by entry. Tags and fused reporters are not part of them. Lines headed by an entry give the natural chain unless they say otherwise; changes in a name come on top.
UniProt P08909: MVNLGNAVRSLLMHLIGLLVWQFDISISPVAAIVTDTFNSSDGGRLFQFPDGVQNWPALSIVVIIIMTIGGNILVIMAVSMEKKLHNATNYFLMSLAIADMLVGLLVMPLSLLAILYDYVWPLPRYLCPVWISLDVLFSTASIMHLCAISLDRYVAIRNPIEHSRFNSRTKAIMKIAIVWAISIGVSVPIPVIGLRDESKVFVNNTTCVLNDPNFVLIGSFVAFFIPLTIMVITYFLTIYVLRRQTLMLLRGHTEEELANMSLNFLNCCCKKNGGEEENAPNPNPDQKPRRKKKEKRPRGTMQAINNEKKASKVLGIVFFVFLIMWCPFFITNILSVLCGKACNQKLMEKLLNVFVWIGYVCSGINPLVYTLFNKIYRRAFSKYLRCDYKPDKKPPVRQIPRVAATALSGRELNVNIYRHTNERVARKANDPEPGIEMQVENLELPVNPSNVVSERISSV
UniProt P14842: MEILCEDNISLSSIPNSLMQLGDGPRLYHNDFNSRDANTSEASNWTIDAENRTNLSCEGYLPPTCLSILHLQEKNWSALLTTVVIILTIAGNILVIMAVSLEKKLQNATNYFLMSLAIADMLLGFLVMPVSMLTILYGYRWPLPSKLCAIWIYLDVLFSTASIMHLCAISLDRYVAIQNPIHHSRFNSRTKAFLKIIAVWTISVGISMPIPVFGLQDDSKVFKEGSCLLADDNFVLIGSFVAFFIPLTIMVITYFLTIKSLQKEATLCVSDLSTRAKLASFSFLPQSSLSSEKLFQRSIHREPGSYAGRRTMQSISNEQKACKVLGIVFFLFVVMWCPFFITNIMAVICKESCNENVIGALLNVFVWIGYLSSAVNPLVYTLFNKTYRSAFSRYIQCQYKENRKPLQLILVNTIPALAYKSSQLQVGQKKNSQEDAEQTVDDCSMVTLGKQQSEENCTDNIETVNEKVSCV

Common to all, as to assay type: tissue-based
The target in assay [1] is T1, Serotonin receptor 2a and 2c (5HT2A and 5HT2C) (Rattus norvegicus, UniProt P08909+P14842). In words: Binding affinity at [3H]KET labeled sites of 5-hydroxytryptamine 2 receptor determined using [125I]- DOI as radioligand in rat frontal cortex.
Assay [2] deals with T1, Serotonin receptor 2a and 2c (5HT2A and 5HT2C). The assay can be described thus: Binding affinity at [3H]DOB labeled sites of 5-hydroxytryptamine 2 receptor determined using [125I]- DOI as radioligand in rat frontal cortex.
Assay [3] shares this target. The assay can be described thus: Binding affinity at [3H]KET labeled sites of 5-hydroxytryptamine 2 receptor was determined using [125I]- DOI as radioligand in rat frontal cortex.
Assay [4] shares this target. The assay can be described thus: Binding affinity at [3H]DOB labeled sites of 5-hydroxytryptamine 2 receptor was determined using [125I]- DOI as radioligand in rat frontal cortex.
For assay [5] the target is unchanged. The assay can be described thus: Binding affinity at 5-hydroxytryptamine 2 receptor was determined using [125I]- DOI as radioligand in rat frontal cortex.

Usually Ki stands for a measure of affinity in units of concentration, obtained from inhibition or displacement. A low value points to higher affinity.

Molecules are shown by their SMILES.

Take `COc1cc(C[C@@H](C)N)c(OC)cc1Br`: the Ki in assay [1] turned out to be 25 nM; in assay [2] it was 0.4 nM.
As to `O=C(CCCN1CCC2(CC1)C(=O)NCN2c1ccccc1)c1ccc(F)cc1` [SPIPERONE], the Ki in assay [3] stood at 0.5 nM; in assay [4] it was 1.8 nM; in assay [5], 1.2 nM.
